Measurements taken from ChEMBL document CHEMBL5576122, “Discovery of Novel Azaphenothiazine Derivatives to Suppress Endometrial Cancer by Targeting GRP75 to Impair Its Interaction with IP3R and Mitochondrial Ca2+ Homeostasis” (J Med Chem, 2024).
Blank lines part the entries; values can stand above or below the molecule they belong to.

Key:
[1] = in vivo; details: BALB/c, mouse, iv, 2 mg/kg
[2] = tested on: KLE; test: cells; details: Homo sapiens, 48 h, read-out: Activity
[3] = tested on: Ishikawa; test: cells; details: Homo sapiens, 48 h, read-out: Activity
[4] = tested on: KLE; test: animal or person; details: Mus musculus, po, 504 h, read-out: TGI
[5] = in vivo; details: BALB/c, mouse, po, 10 mg/kg
[6] = in vitro; details: human, liver microsomes
[7] = in vivo; details: BALB/c, mouse, po, 10 mg/kg; remark: listed apart in the source
[8] = in vivo; details: BALB/c, mouse, po, 10 mg/kg; remark: listed apart in the source
[9] = tested on: KLE; test: cells; details: Homo sapiens, 48 h, read-out: Activity; remark: listed apart in the source
[10] = in vitro; details: plasma
[11] = in vivo; details: BALB/c, mouse, po, 10 mg/kg; remark: listed apart in the source
[12] = in vivo; details: BALB/c, mouse, iv, 2 mg/kg; remark: listed apart in the source
[13] = tested on: Ishikawa; test: cells; details: Homo sapiens, 48 h, read-out: Activity; remark: listed apart in the source
[14] = tested on: Ishikawa; test: cells; details: Homo sapiens, 48 h, read-out: Activity; remark: listed apart in the source
[15] = in vivo; details: BALB/c, mouse, po, 10 mg/kg; remark: listed apart in the source
[16] = in vivo; details: BALB/c, mouse, iv, 2 mg/kg; remark: listed apart in the source
[17] = in vitro; details: mouse, liver microsomes
[18] = tested on: KLE; test: cells; details: Homo sapiens, 48 h, read-out: Activity; remark: listed apart in the source
[19] = in vivo; details: BALB/c, mouse, po, 10 mg/kg; remark: listed apart in the source
[20] = in vitro; details: mouse, liver microsomes; remark: listed apart in the source
[21] = in vitro; details: human, liver microsomes; remark: listed apart in the source
[22] = tested on: KLE; test: Inhibition of cell proliferation in human KLE cells incubated for 48 hrs by CCK-8 assay

half-life at 48 h [1]: 38.5 h
Cmax at 48 h [5]: 67.5 ng/mL
half-life [6]: 1.11 h
AUC(0-t) at 48 h [7]: 705 ng·h/mL
half-life at 48 h [8]: 43.1 h
fraction unbound [10]: 0.0349
bioavailability at 48 h [11]: 32.1%
AUC(0-inf) at 48 h [12]: 659 ng·h/mL
Tmax at 48 h [15]: 1.33 h
AUC(0-t) at 48 h [16]: 440 ng·h/mL
CLint scaled [17]: 85.1 mL/min/kg
AUC(0-inf) at 48 h [19]: 1400 ng·h/mL
half-life [20]: 1.07 h
CLint scaled [21]: 18.7 mL/min/kg
SMILES: COc1ccc2c(c1)N(CCCCCN1CCC3(CCN(C)CC3)CC1)c1ncccc1S2
viability at 3 µM [2]: 84.5%
viability at 1 µM [3]: 90.8%
inhibition in vivo at 2 mg/kg [4]: 58%
viability at 2 µM [9]: 87.2%
viability at 2 µM [13]: 39.4%
viability at 0.5 µM [14]: 93.8%
viability at 4 µM [18]: 79.7%

half-life [6]: 0.415 h
fraction unbound [10]: 0.0084
CLint scaled [17]: 1710 mL/min/kg
half-life [20]: 0.0533 h
CLint scaled [21]: 50 mL/min/kg
SMILES: CN1CCN(CCCCCN2c3cc(Cl)ccc3Sc3cccnc32)CC1.Cl.Cl
IC50 [22]: 10.3 µM
